This is an account of results in EP2063887B1, “NEW SMALL MOLECULE INHIBITORS OF MDM2 AND THE USES THEREOF” (priority 2006, dated 2008).

Several values for one entry are separate records, joined by “and”; a condition that tells them apart may be missing. Equal values may be shown once.

The experiment deals with HCT116 p53WT. Kind of experiment: Cell growth inhibition (WST-8), HCT116 p53WT.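 Note: compound exposure of the cells lasted 4 days.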 To be noted: read-out: HCT116 p53WT IC50, individual determinations and mean ± SD lines, tested form: HCl. It is filed as cell-based.

With `O=C(NCCC(O)CO)C1NC(Cc2ccccc2)C2(C(=O)Nc3cc(Cl)c(F)cc32)C1c1ccc(F)c(Cl)c1` (stereo not shown), the IC50 was 15.5 µM and 8.51 µM.
